# Target: T1, rat TRPA1 (Rattus norvegicus, UniProt Q6RI86)
# By UniProt entry, the sequences of proteins in these tests, tags left out.
# UniProt Q6RI86, whole entry: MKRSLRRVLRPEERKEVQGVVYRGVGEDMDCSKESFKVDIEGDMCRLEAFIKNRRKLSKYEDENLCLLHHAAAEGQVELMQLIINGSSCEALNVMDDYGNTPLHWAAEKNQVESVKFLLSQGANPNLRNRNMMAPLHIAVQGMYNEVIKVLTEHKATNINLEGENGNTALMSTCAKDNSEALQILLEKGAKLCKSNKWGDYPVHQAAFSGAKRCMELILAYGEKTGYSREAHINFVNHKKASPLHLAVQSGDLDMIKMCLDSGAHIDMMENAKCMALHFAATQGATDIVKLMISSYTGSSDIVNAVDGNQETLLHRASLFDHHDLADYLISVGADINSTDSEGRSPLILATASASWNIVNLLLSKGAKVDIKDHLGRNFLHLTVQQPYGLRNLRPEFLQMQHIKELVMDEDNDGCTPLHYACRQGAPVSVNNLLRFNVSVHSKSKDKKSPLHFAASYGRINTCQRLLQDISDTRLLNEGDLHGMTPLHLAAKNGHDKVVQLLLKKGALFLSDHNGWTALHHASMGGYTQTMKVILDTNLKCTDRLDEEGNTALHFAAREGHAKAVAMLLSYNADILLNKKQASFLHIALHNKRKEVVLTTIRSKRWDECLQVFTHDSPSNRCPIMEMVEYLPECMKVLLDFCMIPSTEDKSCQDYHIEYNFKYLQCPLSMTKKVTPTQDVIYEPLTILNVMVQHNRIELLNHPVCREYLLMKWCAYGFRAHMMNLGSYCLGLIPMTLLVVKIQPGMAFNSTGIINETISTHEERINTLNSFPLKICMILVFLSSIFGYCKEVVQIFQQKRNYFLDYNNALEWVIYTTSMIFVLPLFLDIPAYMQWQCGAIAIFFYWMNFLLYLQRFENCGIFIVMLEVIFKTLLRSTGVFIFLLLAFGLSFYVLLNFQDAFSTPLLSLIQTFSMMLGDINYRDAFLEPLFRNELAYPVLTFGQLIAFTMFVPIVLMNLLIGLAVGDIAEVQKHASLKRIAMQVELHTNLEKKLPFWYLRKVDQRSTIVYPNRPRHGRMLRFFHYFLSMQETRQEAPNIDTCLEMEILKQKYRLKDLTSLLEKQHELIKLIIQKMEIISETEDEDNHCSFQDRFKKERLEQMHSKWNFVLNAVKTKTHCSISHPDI
# T1 construct: expressed in transfected cells; host or cells: HEK-293
# Assay: Elevation of intracellular Ca2+ (Fluo-4) in HEK-293 cells stably transfected with rat TRPA1; agonist and antagonist/desensitizing behaviour
# Assay type: cell-based
# Method: Assay of rat TRPA1, TRPV2, TRPV3, TRPV4, TRPM8 or human TRPV1 mediated elevation of intracellular Ca^2+ in transfected HEK-293 cells are been performed as described. Briefly, human embryonic kidney (HEK-293) cells, stably transfected with rat TRPA1, TRPV2, TRPV3, TRPV4, TRPM8 or human TRPV1 (selected by Geneticin 600 μg mL^−1) or not transfected, were cultured in EMEM + 2 mM Glutamine + 1% Non-Essential Amino Acids (NEAA) + 10% FBS and maintained at 37 °C with 5% CO2. Stable transfections were checked by quantitative real-time polymerase chain reaction (PCR), quantitative real-time PCR was performed by an iCycler-iQ (Bio-Rad, Hercules, CA, USA) in a 20 μL reaction mixture containing the following: 10 μL iQ SYBR Green Supermix 2X (Bio-Rad), 20 ng of cDNA (calculated on the basis of the retro-transcribed RNA), and 330 nM for each primer. […] The day of the experiment the cells were loaded with Fluo-4 AM (4 μM in DMSO containing 0.02% Pluronic F-127) for 1 h in the dark at room temperature, rinsed and resuspended in Tyrode’s solution (145 mM NaCl, 2.5 mM KCl, 1.5 mM CaCl2, 1.2 mM MgCl2, 10 mM D-glucose, and 10 mM HEPES, pH 7.4), finally transferred to a quartz cuvette of a spectrofluorimeter (Perkin-Elmer LS50B; λEX = 488 nm, λEM = 516 nm) equipped with PTP-1 Fluorescence Peltier System (PerkinElmer Life and Analytical Sciences, Waltham, MA, USA) under continuous stirring. […]
compound,measurement,value
"C=CCN=C=S [AITC, Allylisothiocyanate, reference compound]",EC50,1.43 ± 0.04 µM
same,IC50,1.71 ± 0.05 µM
